The structures appear in SMILES notation.

We go through 1 compound from US9920357B2, “Systems and methods for identifying cosmetic agents for hair/scalp care compositions” (The Procter & Gamble Company, priority 2012, dated 2018).

In this assay the test system is hair growth.

With `C#CCN(C)[C@H](C)Cc1ccccc1` [Selegiline], the “activation of hair growth” value (alone) is listed as “activate hair growth alone”. In addition, under “in combination with Minoxidil”, the “increase of the hair growth activity of Minoxidil” value is recorded as “increase the hair growth activity of Minoxidil”.
